Results reported in paper PMC10758494 (Frontiers in Pharmacology, 2023).
Read-outs that look alike come from different tables or passages of the source.

Amino acid sequences for entries named in this document (tags omitted). A change or cut given only in a name is not applied to a line headed by its entry. Residues count along the entry.
UniProt P02710: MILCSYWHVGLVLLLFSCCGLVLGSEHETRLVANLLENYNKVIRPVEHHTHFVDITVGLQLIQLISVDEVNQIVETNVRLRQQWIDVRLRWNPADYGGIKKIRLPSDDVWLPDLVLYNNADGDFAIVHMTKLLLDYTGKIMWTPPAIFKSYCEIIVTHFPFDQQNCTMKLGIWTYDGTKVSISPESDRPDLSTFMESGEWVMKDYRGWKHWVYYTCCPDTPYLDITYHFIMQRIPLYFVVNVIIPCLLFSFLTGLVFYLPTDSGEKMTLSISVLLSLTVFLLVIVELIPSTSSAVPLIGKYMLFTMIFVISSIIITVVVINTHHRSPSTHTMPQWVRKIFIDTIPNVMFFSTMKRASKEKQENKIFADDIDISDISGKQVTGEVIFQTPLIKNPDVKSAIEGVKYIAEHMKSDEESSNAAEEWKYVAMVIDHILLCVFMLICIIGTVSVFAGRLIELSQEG
UniProt P02714: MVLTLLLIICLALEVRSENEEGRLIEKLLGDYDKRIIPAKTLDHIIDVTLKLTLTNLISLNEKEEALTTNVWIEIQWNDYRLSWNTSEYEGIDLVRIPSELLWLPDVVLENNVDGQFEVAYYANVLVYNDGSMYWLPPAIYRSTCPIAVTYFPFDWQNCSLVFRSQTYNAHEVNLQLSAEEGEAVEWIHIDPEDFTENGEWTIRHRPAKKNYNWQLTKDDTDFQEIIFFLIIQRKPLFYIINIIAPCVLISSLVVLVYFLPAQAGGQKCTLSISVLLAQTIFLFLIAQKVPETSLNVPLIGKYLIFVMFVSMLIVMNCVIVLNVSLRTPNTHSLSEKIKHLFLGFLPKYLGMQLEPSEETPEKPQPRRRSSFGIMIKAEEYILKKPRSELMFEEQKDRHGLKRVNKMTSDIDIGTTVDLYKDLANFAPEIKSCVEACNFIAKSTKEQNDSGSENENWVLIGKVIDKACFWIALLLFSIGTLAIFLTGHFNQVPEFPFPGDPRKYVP
UniProt P02718: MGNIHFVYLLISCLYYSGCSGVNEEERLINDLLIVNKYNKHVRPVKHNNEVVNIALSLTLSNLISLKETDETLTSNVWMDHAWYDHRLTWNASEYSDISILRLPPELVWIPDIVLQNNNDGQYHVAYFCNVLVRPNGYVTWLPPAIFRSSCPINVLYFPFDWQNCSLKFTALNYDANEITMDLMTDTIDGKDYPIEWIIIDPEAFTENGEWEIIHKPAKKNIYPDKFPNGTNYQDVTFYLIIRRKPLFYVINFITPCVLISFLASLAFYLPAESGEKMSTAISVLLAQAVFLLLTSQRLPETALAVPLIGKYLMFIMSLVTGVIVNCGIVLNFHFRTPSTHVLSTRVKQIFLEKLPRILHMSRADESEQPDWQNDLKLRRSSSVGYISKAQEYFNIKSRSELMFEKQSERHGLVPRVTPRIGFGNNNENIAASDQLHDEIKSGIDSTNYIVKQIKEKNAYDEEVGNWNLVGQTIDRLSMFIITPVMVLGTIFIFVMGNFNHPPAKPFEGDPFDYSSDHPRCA
UniProt P36544, 23-502 limits assumed: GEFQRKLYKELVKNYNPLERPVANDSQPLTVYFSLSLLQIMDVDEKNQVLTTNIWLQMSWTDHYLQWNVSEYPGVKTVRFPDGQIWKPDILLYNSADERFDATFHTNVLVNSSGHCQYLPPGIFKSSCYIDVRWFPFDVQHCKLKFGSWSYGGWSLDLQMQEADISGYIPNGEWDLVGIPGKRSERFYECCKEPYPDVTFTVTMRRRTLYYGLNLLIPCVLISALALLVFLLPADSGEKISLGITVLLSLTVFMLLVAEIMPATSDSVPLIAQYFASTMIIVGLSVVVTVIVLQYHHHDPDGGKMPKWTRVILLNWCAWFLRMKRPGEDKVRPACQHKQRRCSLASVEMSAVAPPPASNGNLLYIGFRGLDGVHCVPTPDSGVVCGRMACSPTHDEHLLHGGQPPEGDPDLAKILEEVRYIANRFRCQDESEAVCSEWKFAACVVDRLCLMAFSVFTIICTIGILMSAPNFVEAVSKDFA

Legend:
[1] = molecular target: muscle-type T. californica nAChR (Tetronarce californica, UniProt P02710+P02714+P02718); assay: Competition radioligand assay with 125I-labeled α-bungarotoxin, T. californica membranes; details: for Binding capacity to muscle-type nAChR (in words): competition with 125I-αBgt; for IC50: read-out: IC50 ± SEM, competition with 125I-αBgt for binding to T. californica nAChR, T. californica electric organ membranes
[2] = molecular target: human α7 nAChR expressed in GH4C1 cells (Homo sapiens, UniProt P36544); assay: Competition radioligand assay with 125I-labeled α-bungarotoxin, GH4C1 cells; details: competition with 125I-αBgt

NCCCCNCCCN
Binding capacity to muscle-type nAChR (in words) [1]: more than five-fold lower than that of Spm | IC50 [1]: > 150 µM | Binding capacity to α7 nAChR (in words) [2]: more than five-fold lower than that of Spm

C[C@@H](N)CCNCCCCNCC[C@@H](C)N
IC50 [1]: 30.8 µM

C[C@H](N)CCNCCCCNCC[C@H](C)N
IC50 [1]: 31 µM

NCCCNCCCCNCCCN [Spm, spermine]
IC50 [1]: 28.6 µM | IC50 ([1]; listed as spermine): 30 µM

NCCCCN
Binding capacity to muscle-type nAChR (in words) [1]: almost inactive | Binding capacity to α7 nAChR (in words) [2]: almost inactive
